## Apparent affinities of Ab-95 variants for a coronavirus HR2 peptide

Antigen: PDVDLGDISGINAS, a 14-residue peptide of the SARS-CoV-2 spike HR2 region.

Ab-95 is the parent antibody, in scFv form: VH, then a 15-residue (Gly4Ser)3 linker, then VL. The heavy chain is unchanged in all variants.
VH: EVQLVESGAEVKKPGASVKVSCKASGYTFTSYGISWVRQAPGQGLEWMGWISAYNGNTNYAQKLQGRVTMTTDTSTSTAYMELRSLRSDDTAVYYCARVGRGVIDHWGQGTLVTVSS
VL: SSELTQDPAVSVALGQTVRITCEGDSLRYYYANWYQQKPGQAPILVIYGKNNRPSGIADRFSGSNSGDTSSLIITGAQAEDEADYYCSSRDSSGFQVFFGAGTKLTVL

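The library (AAYL52) carries one to three amino acid substitutions per variant, with no insertions or deletions. Affinity was read by AlphaSeq, a pooled yeast mating assay with surface-displayed partners. After mating in shaken culture at 30 °C for 16 h, diploids were selected and their barcode pairs sequenced. Read counts were normalised to the haploid input and turned into Kd by a linear fit to BCL2-family pairs of known affinity, for each replicate. The assay was run in three technical replicates.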

Substitutions are numbered in sequence along the VL above, starting at 1 (not Kabat).
The read-out is the apparent dissociation constant on a log10 scale (nM): the lower, the stronger.
The mean shown is taken over the replicates in which the pair was detected.
"no signal" marks a missing value. The strain was present, yet no cells mated with the target were sequenced in any replicate, which points to weak or no binding.

| mean log10 Kd (nM) | detected | changes |
|---|---|---|
| 3.85 | 2/3 | L27S/S88D/F95G |
| 2.05 | 3/3 | S55N/Q96H/F98G |
| 3.54 | 2/3 | R53T/D91T/F98Q |
| 3.49 | 2/3 | K50M/N51A |
| no signal | 0/3 | A32Y/K50C/R90W |
| 2.88 | 3/3 | A32D/S92W/F95S |
| 2.41 | 3/3 | S88L/D91H |
| 1.55 | 3/3 | Y31P/N52L/S92C |
| 2.47 | 3/3 | D25P/S55E/F95H |
| 2.72 | 3/3 | R28S/Y30T/A32G |
| 3.73 | 2/3 | N51L/S92E/F95E |
| 2.77 | 3/3 | N52A/S92P/F98N |
| 2.38 | 3/3 | A32S/K50A/N51S |
| 4.47 | 1/3 | L27G/R53S/P54Q |
| 2.57 | 3/3 | G24M/S26K/S88V |
| 2.77 | 3/3 | P54D/S88P/F95L |
| 2.41 | 3/3 | R28V/Y30M/Y31S |
| 3.73 | 3/3 | S26F/Y30I/R90W |
| 4.76 | 1/3 | G24R/N52C/R90H |
| 2.44 | 3/3 | A32Q/K50G |
| 3.54 | 2/3 | D25I/S92W |
| 3.32 | 2/3 | Y31Q/R53G/V97T |
| 4.05 | 3/3 | S26T/R53N/F98D |
| 2.54 | 3/3 | Y30V/A32F/N33V |
| 5.84 | 1/3 | R28N/R53G/V97M |
| no signal | 0/3 | A32D/P54Y/F95Y |
| 2.28 | 3/3 | D25Y/S93A |
| 2.55 | 3/3 | E23Y/A32P/R53A |
| 0.76 | 3/3 | Y30G/A32C |
| 3.36 | 1/3 | K50Y/G94C/Q96I |
| 4.37 | 1/3 | Y31V/R90E/F98L |
| 3.73 | 2/3 | Y31P/R53H/R90I |
| 2.26 | 3/3 | D25R/S88F/S92Y |
| 2.09 | 3/3 | D25Q/Y30P/V97R |
| no signal | 0/3 | N51R/S92R/F98V |
| 2.51 | 3/3 | P54Q/S92H/F95T |
| 4.10 | 3/3 | Y31C/D91M/S92D |
| no signal | 0/3 | S89A/S93L/Q96V |
| no signal | 0/3 | P54A/R90F/D91Y |
| no signal | 0/3 | S26A/R53W/G94N |
| 2.06 | 3/3 | Y29D/Q96A/V97N |
| 4.35 | 2/3 | N51M/S55Y/V97D |
| no signal | 0/3 | A32Q/K50A/F98G |
| 3.51 | 1/3 | R28K/N33F/G94R |
| 4.82 | 2/3 | G24Y/K50P/N51P |
| no signal | 0/3 | E23W/L27Y/F98T |
| 2.69 | 3/3 | Y31G/S55I/Q96V |
| no signal | 0/3 | N33F/K50Y/S55G |
| 4.73 | 3/3 | N33G/S93P/G94F |
| 3.17 | 1/3 | N33Q/K50T/F98H |
| 3.74 | 3/3 | R28Y/G94F/F95D |
| 3.72 | 2/3 | S89M/S92P/V97D |
| 2.10 | 3/3 | N51G/S55Y/Q96W |
| 2.46 | 3/3 | Y29H/S55D/S93L |
| 2.02 | 3/3 | E23N/Y31G/S93R |
| 3.31 | 3/3 | G24T/R90W/D91W |
| 2.28 | 2/3 | E23F/R90K/Q96K |
| no signal | 0/3 | R28S/N33K/P54K |
| no signal | 0/3 | N33K/Q96C |
| 4.46 | 3/3 | E23Y/D25C/S88F |
| 2.26 | 3/3 | R28M/S55M |
| 2.72 | 3/3 | A32F/N33Y/S55A |
| 2.86 | 3/3 | R28Y/Y29K/Q96K |

Repeated from above, the 4 best binders with a signal in all replicates:

| changes | mean log10 Kd (nM) | detected |
|---|---|---|
| Y30G/A32C | 0.76 | 3/3 |
| Y31P/N52L/S92C | 1.55 | 3/3 |
| E23N/Y31G/S93R | 2.02 | 3/3 |
| S55N/Q96H/F98G | 2.05 | 3/3 |

In this assay the parent's reference entry averaged 2.31; its copy inside this library read 2.25.
Nonspecific signal, from three strains lacking the peptide, appeared in 28% of pairings of library AAYL52, centred on 3.91 (5% of these signals below 2.90); values are not corrected for it.

Data: MIT Lincoln Laboratory AlphaSeq set, Engelhart et al. 2022, doi:10.1038/s41597-022-01779-4, as distributed in FLAb.